Yeast mating assay 1: variants of the scFv Ab-14

Source: Engelhart et al. 2022 (doi:10.1038/s41597-022-01779-4), MIT Lincoln Laboratory and A-Alpha Bio; data file from the FLAb repository.

Target: peptide PDVDLGDISGINAS, taken from heptad repeat 2 (HR2) of SARS-CoV-2 spike.

Parent scFv Ab-14: VH joined to VL by a 15-residue (Gly4Ser)3 linker. Changes lie in the heavy chain CDRs alone.
VH: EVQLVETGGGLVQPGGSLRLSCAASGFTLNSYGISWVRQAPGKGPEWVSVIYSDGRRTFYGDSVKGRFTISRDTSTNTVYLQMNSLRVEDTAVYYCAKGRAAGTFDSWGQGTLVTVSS
VL: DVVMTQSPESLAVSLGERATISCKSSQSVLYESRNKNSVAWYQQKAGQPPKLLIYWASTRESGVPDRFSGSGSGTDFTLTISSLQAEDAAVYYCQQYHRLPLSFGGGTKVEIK

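The starting antibody came from a phage panning campaign against this peptide. Variants in AAYL49 differ from the parent at up to three CDR positions; double and triple changes were sampled at random. AlphaSeq pools MATa yeast showing the antibodies with MATalpha yeast showing the peptide. Mating (16 h, 30 °C) was followed by selection of diploids and sequencing of their barcodes. Scores were corrected for input abundance and mapped to Kd with protein pairs of known affinity run in the same pool. The assay was run in three technical replicates.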

Positions count from residue 1 of the parent VH; S35Q puts Q in place of S. This list gathers variants with a substitution at G99 (VH, numbered from residue 1). Values are log10 of the apparent Kd in nM; lower means stronger binding. The mean shown is taken over the replicates in which the pair was detected. An entry "not detected" has no value in the source: the pair was not observed among the diploids in any replicate. This suggests poor binding but is not conclusive. Background: pairings of library AAYL49 with three empty control strains gave a value in 15% of cases (median 4.06, 5th percentile 2.83). Values in that range, when seen in few replicates, are hard to tell from nonspecific mating. Parent in this assay: reference entry 0.65, copy in this library 4.11 (one replicate of three).

changes,mean log10 Kd (nM),detected
S35Q K65D G99F,not detected,0 of 3
Y32S G99S F105Q,4.93,1 of 3
F27V G99A A101C,not detected,0 of 3
D54T G61Q G99A,5.15,1 of 3
F27L G99Q,not detected,0 of 3
S31R G99Y A101F,4.26,2 of 3
G26Y G99E G103L,3.30,1 of 3
Y52P G99V G103Y,not detected,0 of 3
Y32R Y52L G99D,5.03,3 of 3
R56N G99I S107Q,not detected,0 of 3
G61K G99S G103K,2.14,3 of 3
S31E G55K G99F,4.17,3 of 3
Y32E I51C G99I,4.59,2 of 3
K65C G99Q G103E,not detected,0 of 3
T28I G33P G99I,not detected,0 of 3
S31T F59Q G99S,1.26,3 of 3
L29Y D62Y G99E,2.79,1 of 3
T58G V64M G99A,not detected,0 of 3
F59S G99S,1.83,3 of 3
G26A K65H G99F,not detected,0 of 3
G26Q V50L G99P,not detected,0 of 3
D62R G99F,not detected,0 of 3
S35W G99R A102R,not detected,0 of 3
G26F T28P G99K,not detected,0 of 3
L29K Y52W G99W,3.85,1 of 3
N30C G99C,2.45,1 of 3
Y32S G99Q A102D,4.76,3 of 3
D54C G99I T104I,4.62,2 of 3
G26R G99T D106V,3.23,2 of 3
G33L D54I G99C,3.27,2 of 3
D62C G99Q T104C,not detected,0 of 3
N30P K65L G99S,3.15,3 of 3
G99V,not detected,0 of 3
S53H F59Y G99Q,not detected,0 of 3
G99D R100D A102P,0.87,3 of 3
R56M G61Y G99V,4.05,1 of 3
Y32E I51Q G99T,not detected,0 of 3
N30M V64N G99M,not detected,0 of 3
G55I D62W G99R,not detected,0 of 3
F27S G99N R100H,not detected,0 of 3
G99Y R100C,1.25,3 of 3
S63C G99C T104M,3.56,3 of 3
G33S V64Q G99F,not detected,0 of 3
S63A G99K,not detected,0 of 3
L29W V50M G99C,5.84,1 of 3
T28F G99P,not detected,0 of 3
S35P G99R G103F,not detected,0 of 3
I34T G99L,not detected,0 of 3
G61F G99P,not detected,0 of 3
I51D D54V G99L,not detected,0 of 3
G26T D62A G99C,not detected,0 of 3
T58M G99N D106H,3.29,1 of 3
D54A R57M G99H,3.69,2 of 3
F27T G99R A101M,not detected,0 of 3
G26T G99S T104W,4.72,2 of 3
F27A G99K F105L,not detected,0 of 3
G99S A101I,2.03,3 of 3
L29I G61Y G99S,3.76,2 of 3
G99I R100G S107W,4.10,1 of 3
F27C G99Y,not detected,0 of 3
G26D T58K G99Q,not detected,0 of 3
N30Q G99E S107F,not detected,0 of 3
L29A G99T S107G,not detected,0 of 3
S31C D62K G99D,2.09,1 of 3
G99L A102L S107G,not detected,0 of 3
G99L G103L D106I,not detected,0 of 3
F27P Y60M G99V,not detected,0 of 3
Y32F V64H G99T,not detected,0 of 3
T58K G99M,3.33,1 of 3
G99H,3.76,1 of 3

Extract of 11 entries:

changes	mean log10 Kd (nM)	detected
G26F T28P G99K	not detected	0 of 3
S63C G99C T104M	3.56	3 of 3
Y32E I51Q G99T	not detected	0 of 3
G99S A101I	2.03	3 of 3
K65C G99Q G103E	not detected	0 of 3
F27S G99N R100H	not detected	0 of 3
F27C G99Y	not detected	0 of 3
Y32F V64H G99T	not detected	0 of 3
L29I G61Y G99S	3.76	2 of 3
S31R G99Y A101F	4.26	2 of 3
G61F G99P	not detected	0 of 3